Data as given in patent US8962569B2, “Compositions comprising spp24 peptide fragments” (The Regeants of the University of California, priority 2010, dated 2015).

Key:
A549 cells [1] = experiment: Intratibial implantation of A549 cells and radiographic analysis; type: in vivo, SCID mice
From the text: (§1) Forty, eight-week-old male SCID mice (weight 23.5 to 29.1 g, mean 27.1 g) were housed under pathogen-free conditions in accordance with the protocol approved by the Chancellor's Animal Research Committee (ARC) at the University of California, Los Angeles. There were four experimental groups in this study, and each group underwent implantation of cells in both a subcutaneous model and an intra-tibial injection. Group I animals received A549 cells alone as a control group. Group II animals received A549 cells+rhBMP-2 (10 μg/10 μl). Group III received an A549 cells+spp24 (1000 μg). Group IV received an A549 cells+rhBMP2+spp24. There were 10 animals in each group.
Tibial implantation of A549 cells plus experimental materials was performed as previously described.^14,15 Mice were anesthetized with isoflurane, then maintained via an isoflurane face mask. The overlying skin was prepped in a sterile fashion with 70% ethanol and betadine. A 3-mm longitudinal incision was made over the patellar ligament with a no. 11 scalpel blade and a 2-mm longitudinal incision was then made along the medial border of the patellar ligament to the tibial plateau. A 27.5-gauge needle was introduced through the proximal tibial plateau and into the proximal tibia. Thirty microliters of a suspension containing 1×10^5 A549 cells in 15 H.1 of 1×PBS with 15 μl of Affi-Gel Blue containing the appropriate test materials was injected into the cavity. The wound was closed with a single 5-0 Vicryl suture. At 8 weeks, prior to their sacrifice, animals were anesthetized as previously described, and radiographs were obtained using a Faxitron X-ray cabinet (Faxitron, Inc. Lincolnshire, Ill.). Three independent observers blinded to the treatment groups evaluated the radiographs for the presence of osteoblastic and osteolytic lesions. Radiographs were scored as follows: 0-normal; 1-lytic lesion present within the medullary canal only; 2-obliteration of one cortex; 3-obliteration of two cortices.

[2] = test system: A549 human non-small cell lung cancer cells; experiment: A549 cell proliferation assay (Quick Cell Proliferation Assay); type: cell-based; conditions: 48 h
Experimental: The human non-small cell lung cancer (NSCLC) cell line A549 was used in this study (ATCC, Manassas, Va., USA). A549 cells were maintained in DMEM with 10% FBS and antibiotics (Fisher scientific, Pittsburgh, Pa.) in a humidified incubator with 5% CO2 at 37° C. Cells were not used beyond 10 passages. Cells were plated in serum free medium at a density of 10,000 cells/well and allowed to attach for 24 h. RhBMP-2 (INFUSE®, Medtronic Sofamor Danek, Minneapolis, Minn.) was added to fresh serum-free media at final concentrations of 0, 1, 10, 50, 100, and 500 ng/ml. Recombinant spp24 was prepared as described previously (Murray E J B, et al., Connect Tiss Res 2007; 48:1-8) and added in serum-free media to final concentrations of 10, 25, 50, 75 μg/ml. Cells were incubated for 48 h before cell proliferation was assessed using Quick Cell Proliferation Assay (BioVision, Mountain View, Calif., USA) according to manufacturer's recommendations. Results were reported as a percentage compared with untreated cells.

A549 cells [3] = experiment: Histologic and histomorphometric analysis of A549 tumors (subcutaneous and tibiae); type: in vivo, SCID mice
From the text: as §1
Animals were killed at 8 weeks (or earlier if required by an excessive tumor size) and both the soft tissue tumor and the hind limb were harvested for histological analysis. Soft tissue tumors were fixed in 10% buffered formalin. The tibias were fixed in 10% buffered formalin followed by decalcification in a solution of 10% EDTA for 2 weeks at room temperature with gentle stirring. Longitudinal sections of the proximal tibia were prepared and stained with H&E. For histologic and histomorphometric analyses, all microscopic slides were scanned with a ScanScope GL (Aperio Technologies, Inc., Vista, Calif.) equipped with a 20× objective. The following parameters were considered in the qualitative analysis: amount of tumor cells between cortices from the proximal tibia; anterior and posterior cortical destruction and remodeling; new bone formation within the medullary canal; and anterior/posterior extension of bone formation outside the medullary canal. These histologic findings were graded with the following scale: 0 (none), 1 (mild), 2 (moderate), 3 (intense). Bone volume and tumor volume, expressed as a percentage of total tissue volume (% BV/TV and % TuV/TV, respectively) were quantified in whole-slide images using Spectrum software (Aperio Technologies, Inc. Vista, Calif.).

A549 cells [4] = experiment: Subcutaneous implantation of A549 cells and direct measurement of tumor size; type: in vivo, SCID mice
From the text: as §1
A549 cells (1×10^5) were suspended in 15 μl of 1×PBS and 15 μl Affi-Gel Blue (BioRad Laboratories, Hercules, Calif.) and injected into the subcutaneous space on the backs of mice. Briefly, after the SCID mice were anesthetized, then maintained via an isoflurane face mask, the overlying skin was prepped in sterile fashion with 70% ethanol and betadine. Different materials and A549 cells were then injected into the subcutaneous space on the backs of SCID mice. Animals were killed at 8 weeks or earlier if large tumor size exceeded that permitted by the ARC protocol and the tumor removed. Tumors were measured in three dimensions (length×width×depth). These measurements were repeated by three observers blinded to treatment group. […]

[5] = tibiae, grade 0 (none) to 3 (intense), mean

rhBMP-2: recombinant human bone morphogenetic protein-2 (INFUSE, Medtronic Sofamor Danek)
radiographic score, range (A549 cells [1]; 8 weeks, score 0-3): 1-3 | average radiographic score (A549 cells [1]; 8 weeks, score 0 normal to 3 obliteration of two cortices, cells alone 2.1): 2.4±1.1 | animals that formed an osteoblastic/osteolytic lesion (A549 cells [1]; by 8 weeks): Nine of 10 | effect on A549 cell proliferation ([2]; agent alone, serum-free media, rhBMP-2 0-500 ng/ml, spp24 10-75 μg/ml): significantly increased proliferation in a dose-dependent manner | dose of maximal effect on A549 cell growth ([2]; in vitro): 50 ng/mL | % TuV/TV (tumor volume/total volume) (A549 cells [3]; longitudinal section of the proximal tibia at midline, mean): 58.3% | tumor cells in histological specimens (A549 cells [3]; subcutaneous and intratibial sites, 8 weeks): abundant masses of adenocarcinoma cells | % BV/TV (bone volume/total volume) (A549 cells [3]; tibia section, mean): 1.30% | Anterior cortex destruction (2) (A549 cells [3]; [5]): 3.0 | Extension of bone formation outside the medullary canal (5) (A549 cells [3]; [5]): 0.83 | New bone formation within the medullary canal (4) (A549 cells [3]; [5]): 0.50 | Posterior cortex destruction (3) (A549 cells [3]; [5]): 3.0 | Amount of tumor cells between cortices (1) (A549 cells [3]; tibiae, grade 0 (none), 1 (mild), 2 (moderate), 3 (intense), mean): 3.0 | increase of subcutaneous tumor volume versus cells alone (A549 cells [4]; 8 weeks): about 3 fold | subcutaneous tumor volume (A549 cells [4]; 8 weeks after co-injection with A549 cells, rhBMP-2 10 μg, spp24 1000 μg, cells alone 127.4±117.5, mean±SE per method): 558.4±590.7 mm3
